Measurements taken from publication PMC12455566, “Structural Elucidation and Covalent Modulation of the Autorepressed Orphan Nuclear Receptor NR2F6” (ACS Chemical Biology, 2025).

Target: T1, NR2F6 LBD (Homo sapiens, UniProt P10588)
T1 sequence (P10588 164-404): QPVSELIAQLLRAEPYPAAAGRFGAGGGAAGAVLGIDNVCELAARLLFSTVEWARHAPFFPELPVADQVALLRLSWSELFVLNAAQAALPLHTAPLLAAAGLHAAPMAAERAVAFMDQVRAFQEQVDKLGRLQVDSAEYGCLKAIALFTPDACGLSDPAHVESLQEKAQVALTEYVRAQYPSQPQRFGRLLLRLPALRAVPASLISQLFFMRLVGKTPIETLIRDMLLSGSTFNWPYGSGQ
Test: DSF thermal stabilization of NR2F6 LBD by coregulator peptides
Format: binding
Set-up: encoding the human NR2F6 LBD (residues 164-404) with an N-terminal; made in house; host or cells: E. coli BL21(DE3)
Settings: acetylated peptide 100 µM, 1% DMSO, pH 7.5
Experimental: Data recorded in triplicate. […] N-terminal […] Tween-20, 0.1% (w/v) BSA, pH 8.0). […] Wells containing […] 1.6.7 NR2F6 Ligation Covalent probes were incubated overnight with 20 μM (mutant) […]-SUMO-NR2F6 LBD in buffer containing 50 mM NaCl, 50 mM Tris pH 8.0 (or pH 7.0, 7.5 and 8.5 for the pH screen), 2 mM DTT, 10 […] 400 μM for TR-FRET dose-response assays and 400 μM for DSF experiments).

Q: Which “effect on melting temperature (in words)” value does the source give for `CC(=O)N1CCC[C@H]1C(=O)N1CCC[C@H]1C(=O)N[C@@H](Cc1ccc(O)cc1)C(=O)N[C@@H](C)C(=O)N[C@@H](CC(=O)O)C(=O)N[C@H](C(=O)N1CCC[C@H]1C(=O)N[C@@H](C)C(=O)N[C@@H](CC(C)C)C(=O)N[C@@H](CCCNC(=N)N)C(=O)N[C@@H](CCC(N)=O)C(=O)N[C@@H](CC(C)C)C(=O)N[C@@H](CO)C(=O)N[C@@H](CCC(=O)O)C(=O)N[C@@H](Cc1ccc(O)cc1)C(=O)N[C@@H](C)C(=O)N[C@@H](CCCNC(=N)N)C(=O)N1CCC[C@H]1C(=O)N[C@@H](Cc1c[nH]cn1)C(=O)N[C@H](C(=O)N[C@@H](C)C(=O)N[C@@H](Cc1ccccc1)C(=O)N[C@@H](CO)C(=O)N1CCC[C@H]1C(N)=O)C(C)C)[C@@H](C)O` [ac-dATRO] here?
A: The value was “did not affect the melting temperature”.
